Experimental data reported in PubChem BioAssay AID1325 (NMMLSC, 2008).
The entries are a selection whose mix differs from that of the whole data set. Calls of active or inactive are those of the source.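 How the source made its calls: active means inhibition above 80%; inactive means the rest.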

Sequences of proteins named here, by UniProt entry; tags and fusion partners are left off. A change or cut given only in a name is not applied to a line headed by its entry.
UniProt Q9UNQ0: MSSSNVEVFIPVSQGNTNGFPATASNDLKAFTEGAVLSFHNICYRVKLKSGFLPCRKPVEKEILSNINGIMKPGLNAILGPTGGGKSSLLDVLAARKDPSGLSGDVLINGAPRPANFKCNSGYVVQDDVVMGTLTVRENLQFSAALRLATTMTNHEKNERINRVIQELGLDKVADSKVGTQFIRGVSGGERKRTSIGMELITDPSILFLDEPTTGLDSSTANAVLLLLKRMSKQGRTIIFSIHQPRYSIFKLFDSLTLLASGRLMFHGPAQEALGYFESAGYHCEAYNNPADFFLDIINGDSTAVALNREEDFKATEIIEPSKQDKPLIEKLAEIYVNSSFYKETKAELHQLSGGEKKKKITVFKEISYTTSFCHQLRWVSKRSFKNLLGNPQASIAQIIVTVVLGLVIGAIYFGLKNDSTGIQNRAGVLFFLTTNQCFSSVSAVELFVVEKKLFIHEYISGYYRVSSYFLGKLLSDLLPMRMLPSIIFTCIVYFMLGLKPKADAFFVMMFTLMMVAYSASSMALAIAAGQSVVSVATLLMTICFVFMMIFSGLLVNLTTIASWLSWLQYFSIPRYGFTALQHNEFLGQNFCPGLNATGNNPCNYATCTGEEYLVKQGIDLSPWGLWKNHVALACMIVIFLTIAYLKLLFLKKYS

The compounds below were run against Broad substrate specificity ATP-binding cassette transporter ABCG2 (Homo sapiens) (UniProt Q9UNQ0) (assay: ABCG2 efflux pump inhibitors, primary screen, multiplex with ABCB1, IgMXP3 cells, flow cytometry (AID 1325;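 further: 0% = DMSO and 100% = nicardipine control wells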)). Conditions: JC-1 efflux, at 6.6 µM, stronger effect = higher value.

SMILES | inhibition
CCOP(=O)(Nc1cccc2ccccc12)OCC | inactive: -0.08%
Cc1ccc(NCCc2c([N+](=O)[O-])cc([N+](=O)[O-])cc2[N+](=O)[O-])cc1 | inactive: 14.9%
CCOP1(=S)c2c(C)nn(CCC#N)c2N=C(c2ccccc2F)N1C (stereo not given) | inactive: 1.45%
O=P(Nc1nccs1)(Oc1ccccc1)Oc1ccccc1 | inactive: 2.45%
O=P(Nc1nccs1)(c1ccccc1)c1nc2ccccc2s1 (stereo not given) | inactive: 2.49%
O=[N+]([O-])c1ccc2c(c1)nnn2O | inactive: 1.49%
CCOP1(=S)c2c(C)nn(CCC#N)c2N=C(c2ccc(F)cc2)N1C (stereo not given) | inactive: -1.37%
O=C(NC1CCS(=O)(=O)C1)NP(=S)(Oc1ccccc1)Oc1ccccc1 (stereo not given) | inactive: 4.61%
CCNC(=S)/N=C(\N)N[N+](=O)[O-] | inactive: 4.55%
c1ccc(-c2nn[nH]n2)c(-c2nn[nH]n2)c1 | inactive: 0.48%
CCOC(=O)NC(Sc1ccccc1)C(Cl)(Cl)Cl (stereo not given) | inactive: 1.79%
O=c1c2cc([N+](=O)[O-])ccc2[nH]c2c([N+](=O)[O-])cc([N+](=O)[O-])cc12 | inactive: 1.69%
COC(=O)c1cc2c(s1)N=C(c1ccccc1)N(C)P2(=O)N1CCOCC1 (stereo not given) | inactive: -1.74%
CC(=O)NC(SC(=S)N(CC(C)C)CC(C)C)C(Cl)(Cl)Cl (stereo not given) | inactive: 1.42%
Cc1ccc(OP(=O)(Nc2ccccn2)Oc2ccc(C)cc2)cc1 | inactive: 1.04%
CCC(=O)N1C2C3N(C(=O)CC)C1C1N(C(=O)CC)C(C(N1C(=O)CC)N3C(=O)CC)N2C(=O)CC | inactive: 0.85%
CC(C)(C)C(=O)NC(Sc1ccccc1)C(Cl)(Cl)Cl (stereo not given) | inactive: 0.89%
O=P1(Nc2nc3ccc(Cl)cc3s2)COc2ccccc2O1 (stereo not given) | inactive: 1.1%
CCOc1ccc(C2=NCC(CBr)S2)cc1 (stereo not given) | inactive: 1.65%
CC(=O)Nc1ccc(Oc2c([N+](=O)[O-])cc([N+](=O)[O-])cc2[N+](=O)[O-])cc1 | inactive: 5.14%
c1nnnn1CCn1cnnn1 | inactive: 2.76%
O=P(Nc1nccs1)(c1ccccc1)c1ccccc1 | inactive: 1.4%
CC(C)C(=O)NC(Sc1ccccc1)C(Cl)(Cl)Cl (stereo not given) | inactive: 3.94%
O=P(Nc1ccccn1)(c1ccc(Br)cc1)c1ccc(Br)cc1 | inactive: 1.16%
C(Cc1nn[nH]n1)Cc1nn[nH]n1 | inactive: -3.17%

SMILES | inhibition
O=C(OC1CN2CCC1CC2)c1cccc(Cl)c1 (stereo not given) | inactive: 3.42%
CC(=O)NC(SC(=S)N(C)C)C(Cl)(Cl)Cl (stereo not given) | inactive: 18.2%
O=[N+]([O-])c1ncn(CCn2ncnc2[N+](=O)[O-])n1 | inactive: 10.1%
CC(=O)N1C2C3N(C(C)=O)C1C1N(C(C)=O)C(C(N1C(C)=O)N3C(C)=O)N2C(C)=O | inactive: -0.2%
O=[N+]([O-])c1cccc2n[nH]nc12 | inactive: 2.43%
Cc1ccc(NP(=O)(Oc2ccccc2)Oc2ccccc2)nc1 | inactive: -0.4%
O=[N+]([O-])c1cc([N+](=O)[O-])c(CCNc2ccccc2)c([N+](=O)[O-])c1 | inactive: 2.72%
CCc1nc2c(n1)c1c(non1O)c1c2no[n+]1[O-] | inactive: 2.01%
COc1ccc(C2=NCC(CBr)S2)cc1 (stereo not given) | inactive: -0.34%
CC(C)=N/N=C(\N)N[N+](=O)[O-] | inactive: 0.63%
CN(C)C(=O)OCCc1n(C)cc[n+]1C | inactive: -1.46%
CC1CCN(C(=O)Oc2c(Cl)cc(Cl)c3cccnc23)CC1 | inactive: 4.62%
CCN(/C(=N/P(=O)(N1CCOCC1)N1CCOCC1)N1CCOCC1)c1ccc(OC)cc1 | inactive: -2.12%
COc1ccccc1OP(=O)(Nc1ccc(C)cn1)Oc1ccccc1OC | inactive: 1.42%
CN1CCCC(OC(=O)C(c2ccccc2)c2ccccc2)C1 (stereo not given) | inactive: 0.13%
Clc1ccc(Cl)c(NC2=NCC(CBr)S2)c1 (stereo not given) | inactive: 14.3%
NC(=O)c1cc([N+](=O)[O-])cc([N+](=O)[O-])c1N | inactive: 5.26%
Cc1ccc(N/C(=N/P(=O)(N2CCOCC2)N2CCOCC2)N2CCOCC2)cc1 | inactive: 6.77%
CC(C)CC(=O)NC(Sc1ccc(Cl)cc1)C(Cl)(Cl)Cl (stereo not given) | inactive: 3.87%
Oc1ccccc1CNc1ccccn1 | inactive: 11.3%
O=C(NC(Sc1ccncn1)C(Cl)(Cl)Cl)c1ccccc1 (stereo not given) | inactive: 2.67%
Cc1c2non([O-])c-2c(C)[n+](=O)[n+]1[O-] | inactive: 1.06%
Cc1cc(SC(NC(=O)c2ccc(F)cc2)C(Cl)(Cl)Cl)ncn1 (stereo not given) | inactive: 1.08%
CCOP(=O)(Nc1ccccc1)OCC | inactive: 0.87%
CCN(N=Nc1nonc1N)c1nonc1N | inactive: 6.67%
